# Reference: PubChem BioAssay AID1645886 (National Center for Advancing Translational Sciences (NCATS), 2021)
# Amino acid sequences for entries named in this document (tags omitted).
# UniProt Q8WZA2, whole entry: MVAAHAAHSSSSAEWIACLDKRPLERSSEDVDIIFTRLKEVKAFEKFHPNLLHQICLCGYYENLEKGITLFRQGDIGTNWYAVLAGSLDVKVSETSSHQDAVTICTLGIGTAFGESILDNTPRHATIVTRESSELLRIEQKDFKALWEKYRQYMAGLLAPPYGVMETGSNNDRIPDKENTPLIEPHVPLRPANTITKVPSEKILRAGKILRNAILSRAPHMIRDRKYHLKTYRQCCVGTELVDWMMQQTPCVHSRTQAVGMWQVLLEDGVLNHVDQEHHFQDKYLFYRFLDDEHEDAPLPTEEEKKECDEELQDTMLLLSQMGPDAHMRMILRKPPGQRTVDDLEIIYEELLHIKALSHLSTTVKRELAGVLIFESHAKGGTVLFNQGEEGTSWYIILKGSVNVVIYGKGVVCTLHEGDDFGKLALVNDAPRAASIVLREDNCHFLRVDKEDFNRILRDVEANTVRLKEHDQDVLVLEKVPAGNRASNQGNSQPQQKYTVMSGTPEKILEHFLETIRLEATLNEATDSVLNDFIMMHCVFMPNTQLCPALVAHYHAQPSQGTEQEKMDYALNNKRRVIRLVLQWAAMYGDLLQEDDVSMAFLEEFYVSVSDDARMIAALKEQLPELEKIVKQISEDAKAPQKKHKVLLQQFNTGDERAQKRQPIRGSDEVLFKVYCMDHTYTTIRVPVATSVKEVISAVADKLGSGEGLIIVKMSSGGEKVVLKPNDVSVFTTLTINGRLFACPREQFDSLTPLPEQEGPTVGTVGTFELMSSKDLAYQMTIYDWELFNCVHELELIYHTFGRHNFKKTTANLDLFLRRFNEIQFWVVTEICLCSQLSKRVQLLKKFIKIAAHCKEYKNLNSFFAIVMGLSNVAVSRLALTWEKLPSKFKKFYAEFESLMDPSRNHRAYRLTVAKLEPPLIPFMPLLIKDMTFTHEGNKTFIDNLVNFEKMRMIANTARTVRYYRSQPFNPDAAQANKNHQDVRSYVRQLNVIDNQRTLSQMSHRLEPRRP
# The entries are a selection whose mix differs from that of the whole data set. Inconclusive results are not listed. Activity calls are given as the source filed them. The call rests on the fitted dose curve; in most records, active means well fitted inhibition curve with a large enough effect; inconclusive means small, poorly fitted or top-dose-only effect; inactive means no such curve, though single readings can be large or run the other way.
# Molecular target: Rap guanine nucleotide exchange factor 4 (Homo sapiens) (UniProt Q8WZA2)
# Test: Validation qHTS for antagonist of cAMP-regulated guanine nucleotide exchange factor 4 (EPAC2); further: nearly all actives have a fitted effect of over 40% in size
# Conditions: EPAC2 Rap1B BODIPY-GDP exchange, fluorescence
# Source text: Principle Investigator: Xiaodong Cheng Ph.D. The University of Texas Medical Branch, […], TX MLPCN Grant: NS066510 In multi-cellular eukaryotic organisms, the effects of cAMP are transduced by two ubiquitously-expressed intracellular cAMP receptors, the classic protein kinase A/cAMP-dependent protein kinase (PKA/cAPK) and the more recently discovered exchange protein directly activated by cAMP/cAMP-regulated guanine nucleotide exchange factor (EPAC/cAMP-GEF). Both PKA and EPAC are ubiquitously expressed in all tissues, and an increase in intracellular cAMP levels will lead to the activation of both PKA and EPAC. Therefore, careful dissections of the individual role and relative contribution of EPAC and PKA within the overall cAMP signaling in various model systems are critical for further elucidating the mechanism of cAMP signaling. To date no EPAC-specific antagonists and agonist, as well as isoform-specific agonists have been reported, and developing EPAC-specific pharmacological probes to determine the physiological functions that EPAC play in the overall cAMP-mediated signaling remains a major challenge within the research field. Furthermore, identified regulators of EPAC may lead to new mechanism-based therapeutic strategies specifically targeting the EPAC / cAMP-signaling components as EPAC has been implicated to play important roles in major human pathological conditions such as diabetes, heart disease, and cancer. This qHTS will be used to screen the Molecular Libraries Small Molecule Repository (MLSMR) as a concentration-titration series using the NCGC unique quantitative screening (qHTS) platform to find activators for EPAC1. In addition, this assay will also be used as a counterscreen for the EPAC2 qHTS. This fluorescent based assay is developed and validated for EPAC1 that measures exchange using EPAC effector Rap1 complex with BODIPY-GDP, a GDP analog with a tethered fluorophores. Activators are identified by monitoring the change in fluorescence signal as the exchanged free BODIPY-GDP has a reduced fluorescence compared to Rap1-bound BODIPY-GDP. Increase in signal (activation) is the desired outcome for the EPAC1 agonist while no activity in this assay is desired for the EPAC2 agonist counterscreen. Reference: [1] de Rooij, J., Zwartkruis, F. J., Verheijen, M. H., Cool, R. H., Nijman, S. M., Wittinghofer, A., and Bos, J.L. (1998) Nature 396, 474-477.
# Briefly, three uL of reagents (100 nM EPAC2, 250 nM RAP1B-BODIPY-GDP, 50 uM GDP) were dispensed into a 1536-well Greiner black solid-bottom medium binding assay plate. Controls and test compounds (23 nL) were transferred to the plate via a Kalypsys pin tool equipped with a 1536-pin array. The plates were centrifuged at 1,000 rpm for 15 seconds followed by 5 minute incubation at room temperature. The assay plates were read at 5 minute intervals for 30 minutes in the ViewLux plate reader using 480nm excitation and 540nm emission filters. The results were normalized to the agonist positive control of 6.5 mM cAMP.
smiles,measurement,setting,value
O=[N+]([O-])[O-].[NH4+],"activity, negative = inhibition",at 112 µM (top of the series),inactive: 1.75%
CN(C)CCS,"activity, negative = inhibition",at 112 µM (top of the series),inactive: 7.13%
CC(C)N(CCCl)C(C)C,"activity, negative = inhibition",at 112 µM (top of the series),inactive: 11.6%
O=[N+]([O-])c1cccc([N+](=O)[O-])c1,"activity, negative = inhibition",at 112 µM (top of the series),inactive: -20.6%
same,"activity, negative = inhibition",at 239 µM (top of the series),inactive: 0.688%
CCOP(=O)(CC)Oc1ccc([N+](=O)[O-])cc1 (stereo unspecified),"activity, negative = inhibition",at 112 µM (top of the series),inactive: 11.3%
Cc1cccc([N+](=O)[O-])c1[N+](=O)[O-],"activity, negative = inhibition",at 239 µM (top of the series),inactive: 10.2%
CCN(CCCl)Cc1ccccc1C,"activity, negative = inhibition",at 112 µM (top of the series),inactive: -6.07%
C/C1=C2N=C(/C=C3N=C(/C(C)=C4\[N-][C@@](C)([C@@H]5N=C1[C@](C)(CCC(=O)NC[C@@H](C)OP(=O)([O-])O[C@H]1[C@@H](O)[C@@H](n6cnc7cc(C)c(C)cc76)O[C@@H]1CO)[C@H]5CC(N)=O)[C@@](C)(CC(N)=O)[C@@H]4CCC(N)=O)[C@@](C)(CC(N)=O)[C@@H]\3CCC(N)=O)C(C)(C)[C@@H]/2CCC(N)=O.[C-]#N.[Co+3],"activity, negative = inhibition",at 56.6 µM (top of the series),inactive: -11%
OCCSCCO,"activity, negative = inhibition",at 112 µM (top of the series),inactive: 13.1%
CC(C)OP(=O)(F)OC(C)C,"activity, negative = inhibition",at 112 µM (top of the series),inactive: 4.54%
